The subject of the test is COLO 205. Description: Antitumor activity against human COLO205 cells assessed as cell growth inhibition at 10 uM incubated for 48 hrs by sulforhodamine B assay. Format: functional. The note with it: read-out: GI. Summed up: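 NCI Drug Evaluation Branch protocol: primary single-dose screen at 10 μM across a 57-line human cancer panel. Drug exposure is 48 h. Cell growth and viability are read by sulforhodamine B assay. Data are given as a mean graph of percent growth of treated cells and reported as percentage growth inhibition (GI%).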
(The SRB assay estimates cell density from bound dye.)

Consider `N#Cc1c(-c2ccc(Br)cc2)nc2c(/N=N/c3ccc(S(N)(=O)=O)cc3)c(N)nn2c1N`, for which the inhibition of growth at 10 µM amounted to 74%.
